The list is not random: actives were taken first. Their share in the collection is about 4.2%.
MC4R antag cAMP = antagonists of human melanocortin 4 receptor (MC4R) | AID 540295 | MC4R-expressing cells, MTII-stimulated cAMP, LANCE TR-FRET | 360,000 tested, 0.48% active | P32245 | inhibition, % at 6.5 µM;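 active = inhibition above its plate's cutoff, the mean of tested wells on that plate plus 3 SD, cut at about 29% in these data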;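 note: 0% = Melanotan II alone and 100% = Melanotan II plus saturating MCL0020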
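Assay system: U2OS cells stably expressing human melanocortin 4 receptor (MC4R) / Dosing: 6.5 µM / Timing: compound 30 min, challenge 1 h, detection 1 h / Measured by: Eu-cAMP/anti-cAMP TR-FRET, emission 671 nm / Replicates: singlicate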
NALP1 inh = blocks the NALP1 inflammasome reconstituted in yeast | inhibition, % at 10 µM | 280,000 tested, 0.61% active | AID 2071 | S. cerevisiae NALP1/ASC/caspase-1 growth, X-gal OD620, 72 h; in the data active = inhibition mostly above about 24%, no sharp cut-off; inactive = mostly below about 32%
HDAC3 inhib = blocks human histone deacetylase 3. O15379. recombinant HDAC3, fluorogenic peptide/trypsin coupled, fluorescence. inhibition, % at 8.3 µM. 320,000 tested, 0.15% active; in the data active = inhibition above about 26%, passing the limit was not always enough; inconclusive = no clear call, values can overlap the other calls
ALR inh = blocks human ALR sulfhydryl oxidase activity; inhibition, % (no concentration beside the values); hit rate 3.8% among 290,000; purified ALR, DTT oxidation, H2O2 HRP-luminol luminescence; AID 485317; P55789;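 active = mean and each replicate at 75% or more; inconclusive = only one of the two met; inactive = neither met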;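 note: stock transfer was 7.5 nL into about 7.5 µL; 0% = neutral wells and 100% = wells with inactivated enzyme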
MC4R barr agon = activates human MC4R beta-arrestin recruitment; activation, % at 8.9 µM; P32245; 360,000 tested, 0.98% active; U2OS MC4R beta-arrestin complementation, luminescence; percent of melanotan II response, DMSO zero;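 active = activation above a per-plate cutoff, the mean activation of sample wells on that plate plus 3 SD, cut at about 8% in these data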
UUG fidelity = yeast start codon fidelity modulation; activity score, % at 18.7 µM; actives 0.13% (n = 350,000); S. cerevisiae UUG-firefly luciferase reporter, luminescence/redox ratio; AID 602363;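 active means replicate mean at a twofold rise or more, about +100% in these data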;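 further: firefly luciferase made from a UUG start codon reports start codon fidelity; reporter light over untreated wells divided by growth signal over untreated wells; some hits fall short of that in this replicate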
* marks the source's active call; other numbers are inactive results; ? = inconclusive; · = no result.

#1 CC1CN2C(c3ccc(Cl)cc3)=CSC2=N1 (stereo not given)
#2 CO[C@H]1CN(C)C(=O)c2ccc(NC(=O)Nc3ccccc3)cc2OC[C@@H](C)NC[C@H]1C
#3 Cc1noc(C)c1S(=O)(=O)N(C)C[C@@H]1Oc2c(NS(=O)(=O)c3cn(C)cn3)cccc2C(=O)N([C@@H](C)CO)C[C@@H]1C
#4 CCc1cccc(NC(=O)CSC2=NS(=O)(=O)c3ccccc32)c1
#5 CCc1cccc(NC(=O)[C@@H]2CCCN2C2=NS(=O)(=O)c3ccccc32)c1
#6 COc1cc(Cn2cnnn2)ccc1O

Assay by compound | 1 | 2 | 3 | 4 | 5 | 6
HDAC3 inhib | 2 | · | · | 36* | 2 | -4
MC4R antag cAMP | 6 | · | · | 0 | 6 | 2
MC4R barr agon | -1 | · | · | 0 | -2 | -3
NALP1 inh | 20 | · | · | 19 | · | 2
UUG fidelity | 5 | 4 | -2 | -1 | -7 | ·
ALR inh | 99* | · | · | 99* | -2 | 81*

#7 O=C1C(=O)N(c2nccs2)C(c2ccccc2F)/C1=C(\O)c1ccc2c(c1)OCCO2 (stereo not given)
#8 O=C1C(=O)N(c2nccs2)C(c2ccccc2)/C1=C(\O)c1ccc2c(c1)OCCO2 (stereo not given)
#9 C[C@H]1CN([C@@H](C)CO)C(=O)c2cc(C#Cc3ccc(F)cc3)cnc2O[C@H]1CN(C)Cc1ccccn1
#10 COc1cc(/C=N/NC(=O)/C(=C/c2ccccc2)CCO)ccc1O
#11 CCc1cc(C(=O)N/N=C/c2ccc(O)cc2O)c2ccccc2n1
#12 O=C(N/N=C/c1ccc(O)cc1O)/C(=C/c1ccccc1)CCO

Assay by compound | 7 | 8 | 9 | 10 | 11 | 12
HDAC3 inhib | 8 | 5 | · | 9 | 0 | 7
MC4R antag cAMP | 11 | 7 | · | -1 | 0 | -5
MC4R barr agon | -3 | -2 | · | -2 | -4 | -2
NALP1 inh | 17 | 16 | · | · | -9 | ·
UUG fidelity | -3 | -19 | -17 | -16 | -8 | -24
ALR inh | 98* | 0 | · | 99* | 83* | 81*

#13 O=C(CCCCCNC(=O)c1ccccc1)N/N=C/c1ccc(O)cc1O
#14 COc1ccc(/C=N/NC(=O)/C(=C/c2ccccc2)CCO)cc1
#15 C[C@H]1CN([C@@H](C)CO)C(=O)Cc2cc(NC(=O)Cc3cn(C)c4ccccc34)ccc2O[C@H]1CN(C)Cc1ccc(Cl)c(Cl)c1
#16 COc1ccccc1S(=O)(=O)N[C@H]1CC[C@H](CCn2cc(C3CC3)nn2)O[C@H]1CO
#17 C[C@@H]1CCCCO[C@@H](CN(C)CC2CCCCC2)[C@H](C)CN([C@@H](C)CO)C(=O)c2cc(NC(=O)Cc3ccccc3)ccc2O1
#18 COc1ccc(N(C(=O)CSCC(=O)Nc2cc(C)on2)C(C(=O)NC2CCCCC2)c2ccc(O)c(O)c2)cc1 (stereo not given)

Assay by compound | 13 | 14 | 15 | 16 | 17 | 18
HDAC3 inhib | 3 | 5 | · | · | · | 2
MC4R antag cAMP | 5 | -4 | · | · | · | 1
MC4R barr agon | 1 | 0 | · | · | · | -2
NALP1 inh | 22 | · | · | · | · | 18
UUG fidelity | 2 | · | -11 | 15 | 11 | ·
ALR inh | 73 | 64 | · | · | · | 85*

Shown with the structure last: entries from further up
| item | HDAC3 inhib | MC4R antag cAMP | MC4R barr agon | NALP1 inh | UUG fidelity | ALR inh | SMILES |
| --- | --- | --- | --- | --- | --- | --- | --- |
| 13 | 3 | 5 | 1 | 22 | 2 | 73 | O=C(CCCCCNC(=O)c1ccccc1)N/N=C/c1ccc(O)cc1O |
| 14 | 5 | -4 | 0 | · | · | 64 | COc1ccc(/C=N/NC(=O)/C(=C/c2ccccc2)CCO)cc1 |

Next part.
#19 CCOc1cc(C(C(=O)NCC2CCCO2)N(C(=O)Cn2nnc3ccccc32)c2ccc(NC(C)=O)cc2)ccc1O (stereo not given)
#20 Cc1cc(NC(=O)CSCC(=O)N(c2cccc(Cl)c2)C(C(=O)NC2CCCCC2)c2ccc(O)c(O)c2)no1 (stereo not given)
#21 CC(=O)Nc1ccc(N(C(=O)Cn2nnc3ccccc32)C(C(=O)NC2CCCC2)c2ccc(O)c(O)c2)cc1 (stereo not given)
#22 Cc1cc(NC(=O)CSCC(=O)N(c2ccc(F)cc2)C(C(=O)NC2CCCCC2)c2ccc(O)c(O)c2)no1 (stereo not given)
#23 COC(=O)C(N)Cc1ccc(Cl)cc1 (stereo not given)
#24 COC(=O)[C@@H](N)Cc1ccc(O)c(O)c1

Assay by compound | 19 | 20 | 21 | 22 | 23 | 24
HDAC3 inhib | 1 | -1 | 2 | 1 | 0 | -7
MC4R antag cAMP | 10 | 5 | 10 | 11 | 4 | -10
MC4R barr agon | 1 | -2 | -2 | -2 | -1 | 1
NALP1 inh | 6 | 5 | 23 | 21 | · | ·
UUG fidelity | -1 | 4 | · | -10 | -1 | -7
ALR inh | 11 | 99* | 92* | -3 | -17 | 98*

#25 CNC(=O)c1csc(-c2ccc(C)cc2)n1
#26 CNC(=O)c1csc(-c2ccc(Cl)cc2)n1
#27 O=C(O)CCC(=O)Nc1ccc2c(c1)Cc1cc(NC(=O)CCC(=O)O)ccc1-2
#28 O=C1CN=C(Nc2ccccc2Cl)N1c1ccccc1
#29 CCOc1ccc(N2C(=O)CN=C2Nc2ccccc2Cl)cc1
#30 Clc1ccc(-n2nnc(-c3nccs3)n2)cc1Cl

Assay by compound | 25 | 26 | 27 | 28 | 29 | 30
HDAC3 inhib | 4 | -8 | 7 | -10 | 1 | 5
MC4R antag cAMP | 3 | -7 | 12 | 8 | 1 | -8
MC4R barr agon | 0 | -2 | -2 | 1 | 5 | 1
NALP1 inh | 9 | 31 | 17 | 34* | 11 | 5
UUG fidelity | -2 | · | 0 | -7 | -7 | -27
ALR inh | 99* | -40 | 99* | -10 | -3 | 92*

#31 Cc1ccc(-n2nnc(-c3nccs3)n2)cc1
#32 COc1ccc(/C=N/NC(=O)c2ccco2)cc1Cn1nc(C)c([N+](=O)[O-])c1C
#33 COCc1cc(/C=N\NC(=O)COc2ccc(Cl)cc2)ccc1OC
#34 COc1ccc(/C=N\NC(=O)COc2ccc(C(C)(C)C)cc2)cc1Cn1nc(C)cc1C
#35 COc1ccc(/C=N/NC(=O)c2ccco2)cc1Cn1nc(C)cc1C
#36 C#CCn1c(=NC(=O)c2ccccc2[N+](=O)[O-])sc2cc(S(C)(=O)=O)ccc21

Assay by compound | 31 | 32 | 33 | 34 | 35 | 36
HDAC3 inhib | 7 | -1 | 1 | -1 | 22 | -5
MC4R antag cAMP | 2 | 6 | 12 | 4 | 12 | -1
MC4R barr agon | 0 | 1 | 0 | 22* | -2 | 2
NALP1 inh | 11 | 0 | 23 | 38* | 15 | 24
UUG fidelity | -81 | · | · | -17 | · | ·
ALR inh | · | 26 | -2 | -1 | 77* | -5

MC4R barr agon: what is marked active above.
#34 COc1ccc(/C=N\NC(=O)COc2ccc(C(C)(C)C)cc2)cc1Cn1nc(C)cc1C

Assay by compound | 34
HDAC3 inhib | -1
MC4R antag cAMP | 4
MC4R barr agon | 22*
NALP1 inh | 38*
UUG fidelity | -17
ALR inh | -1

Remaining list, next part
#37 C#CCn1c(=NC(=O)CSC(C)=O)sc2cc(F)ccc21
#38 CCC(=O)N=c1sc2cc(F)cc(F)c2n1C
#39 CCn1c(=NC(=O)CSC(C)=O)sc2cc(F)ccc21
#40 CCC(=O)N(C)C[C@H]1Oc2cc(-c3ccc(OC)cc3)ccc2S(=O)(=O)N([C@@H](C)CO)C[C@H]1C
#41 COc1c(Cl)cc(Cl)cc1C(=O)Nc1ccc(NC(C)=O)cc1
#42 COC(=O)c1cc(Cl)cc(Cl)c1OS(=O)(=O)N(C)C

Assay by compound | 37 | 38 | 39 | 40 | 41 | 42
HDAC3 inhib | -3 | 3 | 6 | · | -1 | 0
MC4R antag cAMP | -1 | -4 | -7 | · | 9 | 7
MC4R barr agon | 3 | 1 | 1 | · | -3 | -2
NALP1 inh | 2 | · | 30 | · | 12 | -10
UUG fidelity | -13 | -11 | -2 | 8 | · | 6
ALR inh | 97* | -1 | 98* | · | · | 99*

#43 COc1ccc(NC(=O)CSCC(=O)N(C)Cc2cccc(OC)c2OC)cc1
#44 COc1cccc(CN(C)C(=O)CSCC(=O)Nc2cccc(C)c2)c1OC
#45 Cc1cccc(NC(=O)CSCC(=O)OCc2ccccn2)c1
#46 Cc1ccc(NC2CCCN(C(=O)CCCN3CCCCC3=O)C2)cc1C (stereo not given)
#47 COc1ccc(NC2CCCN(C(=O)CCN3CCCC3=O)C2)cc1 (stereo not given)

Assay by compound | 43 | 44 | 45 | 46 | 47
HDAC3 inhib | -2 | 2 | ? | 15 | 1
MC4R antag cAMP | 7 | -2 | 2 | 1 | 4
MC4R barr agon | 1 | -2 | 0 | -2 | -2
NALP1 inh | · | · | · | 20 | 7
UUG fidelity | 3 | 6 | -13 | -11 | -17
ALR inh | -3 | 92* | 99* | 99* | 98*

High-throughput results deposited in PubChem by several laboratories.
